Laboratory results taken from patent publication US9139587B2, “N1-pyrazolospiroketone acetyl-CoA carboxylase inhibitors” (Pfizer Inc., priority 2009, dated 2015).

Protein sequences, listed by entry. Tags and fused reporters are not part of them.
UniProt O00763, whole entry V2141I: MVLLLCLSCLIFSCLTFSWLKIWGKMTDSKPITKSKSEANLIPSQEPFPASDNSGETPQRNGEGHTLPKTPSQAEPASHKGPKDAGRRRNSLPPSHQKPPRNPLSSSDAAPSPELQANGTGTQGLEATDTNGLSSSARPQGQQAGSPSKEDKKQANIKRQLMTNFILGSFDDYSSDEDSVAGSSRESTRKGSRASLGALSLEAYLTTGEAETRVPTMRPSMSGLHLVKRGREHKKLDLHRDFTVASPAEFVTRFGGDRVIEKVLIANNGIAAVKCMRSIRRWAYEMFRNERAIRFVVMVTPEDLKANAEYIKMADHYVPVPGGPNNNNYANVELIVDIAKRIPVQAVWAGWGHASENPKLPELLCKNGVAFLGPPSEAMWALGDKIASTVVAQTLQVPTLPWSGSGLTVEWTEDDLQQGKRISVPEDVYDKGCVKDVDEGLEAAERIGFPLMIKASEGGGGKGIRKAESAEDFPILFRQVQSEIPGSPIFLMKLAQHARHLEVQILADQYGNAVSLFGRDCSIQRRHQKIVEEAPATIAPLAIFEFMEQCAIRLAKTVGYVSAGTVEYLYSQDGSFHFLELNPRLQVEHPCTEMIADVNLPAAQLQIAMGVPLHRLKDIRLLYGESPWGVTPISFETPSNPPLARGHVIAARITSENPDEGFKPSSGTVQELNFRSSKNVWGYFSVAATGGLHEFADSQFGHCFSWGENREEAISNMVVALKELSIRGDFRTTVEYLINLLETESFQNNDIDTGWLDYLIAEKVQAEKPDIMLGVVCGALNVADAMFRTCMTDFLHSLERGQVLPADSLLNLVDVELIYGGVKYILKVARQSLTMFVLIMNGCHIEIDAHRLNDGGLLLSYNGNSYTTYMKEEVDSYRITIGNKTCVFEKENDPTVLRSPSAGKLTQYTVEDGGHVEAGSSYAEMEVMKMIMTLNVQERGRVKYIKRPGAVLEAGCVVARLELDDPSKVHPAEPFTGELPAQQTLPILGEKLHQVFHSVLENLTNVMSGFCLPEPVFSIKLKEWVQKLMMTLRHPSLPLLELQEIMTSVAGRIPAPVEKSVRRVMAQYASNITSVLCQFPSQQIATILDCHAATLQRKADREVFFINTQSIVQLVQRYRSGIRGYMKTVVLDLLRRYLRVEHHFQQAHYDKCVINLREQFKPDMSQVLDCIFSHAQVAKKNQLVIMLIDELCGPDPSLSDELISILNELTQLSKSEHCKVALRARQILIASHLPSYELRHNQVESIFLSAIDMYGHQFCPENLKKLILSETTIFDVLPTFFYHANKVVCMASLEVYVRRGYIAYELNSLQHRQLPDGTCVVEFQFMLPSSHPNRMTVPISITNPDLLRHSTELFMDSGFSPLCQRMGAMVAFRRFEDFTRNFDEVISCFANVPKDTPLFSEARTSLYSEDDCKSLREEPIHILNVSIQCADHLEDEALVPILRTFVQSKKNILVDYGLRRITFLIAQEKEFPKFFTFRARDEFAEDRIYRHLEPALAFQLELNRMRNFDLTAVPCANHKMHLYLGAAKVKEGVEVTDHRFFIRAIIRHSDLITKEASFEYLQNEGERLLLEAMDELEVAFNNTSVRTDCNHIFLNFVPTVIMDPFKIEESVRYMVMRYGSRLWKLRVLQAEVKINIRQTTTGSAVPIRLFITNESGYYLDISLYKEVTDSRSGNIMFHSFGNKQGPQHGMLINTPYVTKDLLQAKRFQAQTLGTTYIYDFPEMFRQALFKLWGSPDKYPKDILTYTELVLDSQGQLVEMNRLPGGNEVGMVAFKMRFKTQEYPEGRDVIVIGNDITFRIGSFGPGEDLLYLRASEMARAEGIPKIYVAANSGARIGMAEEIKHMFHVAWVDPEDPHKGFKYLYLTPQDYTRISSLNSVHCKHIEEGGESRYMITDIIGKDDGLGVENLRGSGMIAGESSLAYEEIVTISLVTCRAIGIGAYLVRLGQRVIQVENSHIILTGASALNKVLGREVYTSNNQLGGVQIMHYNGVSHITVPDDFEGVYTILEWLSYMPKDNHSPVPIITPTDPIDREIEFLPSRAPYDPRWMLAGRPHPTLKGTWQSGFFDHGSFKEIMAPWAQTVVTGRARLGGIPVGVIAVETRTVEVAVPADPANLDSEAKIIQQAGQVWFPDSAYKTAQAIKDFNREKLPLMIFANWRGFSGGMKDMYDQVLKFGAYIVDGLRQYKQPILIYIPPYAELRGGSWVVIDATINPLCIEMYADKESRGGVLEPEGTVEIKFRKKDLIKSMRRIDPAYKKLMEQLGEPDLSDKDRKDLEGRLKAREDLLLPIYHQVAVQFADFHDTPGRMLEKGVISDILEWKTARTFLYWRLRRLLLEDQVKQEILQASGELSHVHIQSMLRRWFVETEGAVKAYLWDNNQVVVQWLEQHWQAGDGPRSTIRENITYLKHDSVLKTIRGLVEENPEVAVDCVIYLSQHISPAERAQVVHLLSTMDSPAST

Legend:
[1] = biological target: recombinant human ACC2 (rhACC2) (Homo sapiens, UniProt O00763, V2141I); experiment: recombinant hACC2 Transcreener assay (direct inhibition of ACC2 activity); settings: read-out: hACC2, Transcreener ADP detection FP assay, 50 μM ATP, 30 μM acetyl-CoA, 50 min at 25° C.
Procedure: For example direct inhibition of ACC activity, for the compound of Formula (1) was determined using preparations of recombinant human ACC1 (rhACC1) and recombinant human ACC2 (rhACC2). Representative sequences of the recombinant human ACC1 and ACC2 that can be used in the assay are provided in FIG. 1 (SEQ ID NO. 1) and FIG. 2 (SEQ. ID NO. 2), respectively.
[3] Preparation of rhACC2. Human ACC2 inhibition was measured using purified recombinant human ACC2 (hrACC2). Briefly, a full length Cytomax clone of ACC2 was purchased from Cambridge Bioscience Limited and was sequenced and subcloned into PcDNA5 FRT TO-TOPO (Invitrogen, Carlsbad, Calif.). The ACC2 was expressed in CHO cells by tetracycline induction and harvested in 5 liters of DMEM/F12 with glutamine, biotin, hygromycin and blasticidin with 1 μg/mL tetracycline (Invitrogen, Carlsbad, Calif.). The conditioned medium containing ACC2 was then applied to a Softlink Soft Release Avidin column (Promega, Madison, Wis.) and eluted with 5 mM biotin. 4 mgs of ACC2 were eluted at a concentration of 0.05 mg/mL (determined by A280) with an estimated purity of 95% ([…]). The purified ACC2 was dialyzed in 50 mM Tris, 200 mM NaCl, 4 mM DTT, 2 mM EDTA, and 5% glycerol. The pooled protein was frozen and stored at −80° C., with no loss of activity upon thawing. For measurement of ACC2 activity and assessment of ACC2 inhibition, test compounds were dissolved in DMSO and added to the rhACC2 enzyme as a 5× stock with a final DMSO concentration of 1%.
[4] Measurement of human ACC2 inhibition. hACC2 was assayed in a Costar #3676 (Costar, Cambridge, Mass.) 384-well plate using the Transcreener ADP detection FP assay kit (Bellbrook Labs, Madison, Wisconsin) using the manufacturer's recommended conditions for a 50 uM ATP reaction. The final conditions for the assay were 50 mM HEPES, pH 7.2, 5 mM MgCl2, 5 mM tripotassium citrate, 2 mM DTT, 0.1 mg/mL BSA, 30 μM acetyl-CoA, 50 μM ATP, and 8 mM KHCO3 Typically, a 10 μl reaction was run for 50 min at 25° C., and 10 μl of Transcreener stop and detect buffer was added and the combination incubated at room temp for an additional 1 hour. The data was acquired on an Envision Fluorescence reader (Perkinelmer) using a 620 excitation Cy5 FP general dual mirror, 620 excitation Cy5 FP filter, 688 emission (S) and a 688 (P) emission filter.

[2] = biological target: recombinant human ACC1 (rhACC1) (Homo sapiens, UniProt Q13085, DEL44-44); experiment: recombinant hACC1 Transcreener assay (direct inhibition of ACC1 activity); format: biochemical; settings: read-out: hACC1, Transcreener ADP detection FP assay, 50 μM ATP, 30 μM acetyl-CoA, 120 min at 25° C.
Procedure: For example direct inhibition of ACC activity, for the compound of Formula (1) was determined using preparations of recombinant human ACC1 (rhACC1) and recombinant human ACC2 (rhACC2). Representative sequences of the recombinant human ACC1 and ACC2 that can be used in the assay are provided in FIG. 1 (SEQ ID NO. 1) and FIG. 2 (SEQ. ID NO. 2), respectively. Preparation of rhACC1. Two liters of SF9 cells, infected with recombinant baculovirus containing full length human ACC1 cDNA, were suspended in ice-cold lysis buffer (25 mM Tris, pH 7.5; 150 mM NaCl; 10% glycerol; 5 mM imidazole (EMD Bioscience; Gibbstown, N.J.); 2 mM TCEP (BioVectra; Charlottetown, Canada); Benzonase nuclease (10000 U/100 g cell paste; Novagen; Madison, Wis.); EDTA-free protease inhibitor cocktail (1 tab/50 mL; Roche Diagnostics; Mannheim, Germany). Cells were lysed by 3 cycles of freeze-thaw and centrifuged at 40,000×g for 40 minutes (4° C.). Supernatant was directly loaded onto a HisTrap FF crude column (GE Healthcare; Piscataway, N.J.) and eluted with an imidazole gradient up to 0.5 M over 20 column volumes (CV). ACC1-containing fractions were pooled and diluted 1:5 with 25 mM Tris, pH 7.5, 2 mM TCEP, 10% glycerol and direct loaded onto a CaptoQ (GE Healthcare) column and eluted with an NaCl gradient up to 1 M over 20 CV's. Phosphate groups were removed from purified ACC1 by incubation with lambda phosphatase (100 U/10 μM target protein; New England Biolabs; Beverly, Mass.) for 14 hours at 4° C.; okadaic acid was added (1 μM final concentration; Roche Diagnostics) to inhibit the phosphatase. Purified ACC1 was exchanged into 25 mM Tris, pH 7.5, 2 mM TCEP, 10% glycerol, 0.5 M NaCl by 6 hour dialysis at 4° C. Aliquots were prepared and frozen at −80° C. […] The final conditions for the assay were 50 mM HEPES, pH 7.2, 10 mM MgCl2, 7.5 mM tripotassium citrate, 2 mM DTT, 0.1 mg/mL BSA, 30 μM acetyl-CoA, 50 μM ATP, and 10 mM KHCO3 Typically, a 10 μl reaction was run for 120 min at 25° C., and 10 μl of Transcreener stop and detect buffer was added and the combination incubated at room temp for an additional 1 hour. The data was acquired on a Envision Fluorescence reader (Perkinelmer) using a 620 excitation Cy5 FP general dual mirror, 620 excitation Cy5 FP filter, 688 emission (S) and a 688 (P) emission filter.

[3] = tested form: free base (may be converted to hydrochlo)

Compound	IC50 [1] [nM]	IC50 [2] [nM]	IC50 [1, 3] [nM]	IC50 [2, 3] [nM]
Cc1cccc2c(=O)cc(C(=O)N3CCC4(CC3)CC(=O)c3c(cnn3C(C)(C)C)C4)[nH]c12	26.8	40.9	–	–
CC(C)n1ncc2c1C(=O)CC1(CCN(C(=O)c3ccc4[nH]c(=O)n(C)c4c3)CC1)C2	–	–	64.1	269
CC(C)n1ncc2c1C(=O)CC1(CCN(C(=O)c3ccc(-c4cn[nH]c4)cc3)CC1)C2	47.3	128	–	–
CNc1cc(C(=O)N2CCC3(CC2)CC(=O)c2c(cnn2C(C)C)C3)ccn1	287	795	–	–
CC(C)n1ncc2c1C(=O)CC1(CCN(C(=O)c3ccc4c(c3)C(=O)NCC4)CC1)C2	34.1	97.3	–	–
CC(C)n1ncc2c1C(=O)CC1(CCN(C(=O)c3ccc4cccnc4c3O)CC1)C2	139	516	–	–
CC(C)n1ncc2c1C(=O)CC1(CCN(C(=O)c3cnc4[nH]ccc4c3)CC1)C2	42.4	43.8	–	–

Read-outs that look alike come from different tables or passages of the source.
